Experimental data reported in patent US9562035B2, “Benzamide derivative useful as FASN inhibitors for the treatment of cancer” (Janssen Pharmaceutica NV, priority 2013, dated 2017).

Sequences of proteins named here, by UniProt entry; tags and fusion partners are left off.
UniProt P49327, whole entry: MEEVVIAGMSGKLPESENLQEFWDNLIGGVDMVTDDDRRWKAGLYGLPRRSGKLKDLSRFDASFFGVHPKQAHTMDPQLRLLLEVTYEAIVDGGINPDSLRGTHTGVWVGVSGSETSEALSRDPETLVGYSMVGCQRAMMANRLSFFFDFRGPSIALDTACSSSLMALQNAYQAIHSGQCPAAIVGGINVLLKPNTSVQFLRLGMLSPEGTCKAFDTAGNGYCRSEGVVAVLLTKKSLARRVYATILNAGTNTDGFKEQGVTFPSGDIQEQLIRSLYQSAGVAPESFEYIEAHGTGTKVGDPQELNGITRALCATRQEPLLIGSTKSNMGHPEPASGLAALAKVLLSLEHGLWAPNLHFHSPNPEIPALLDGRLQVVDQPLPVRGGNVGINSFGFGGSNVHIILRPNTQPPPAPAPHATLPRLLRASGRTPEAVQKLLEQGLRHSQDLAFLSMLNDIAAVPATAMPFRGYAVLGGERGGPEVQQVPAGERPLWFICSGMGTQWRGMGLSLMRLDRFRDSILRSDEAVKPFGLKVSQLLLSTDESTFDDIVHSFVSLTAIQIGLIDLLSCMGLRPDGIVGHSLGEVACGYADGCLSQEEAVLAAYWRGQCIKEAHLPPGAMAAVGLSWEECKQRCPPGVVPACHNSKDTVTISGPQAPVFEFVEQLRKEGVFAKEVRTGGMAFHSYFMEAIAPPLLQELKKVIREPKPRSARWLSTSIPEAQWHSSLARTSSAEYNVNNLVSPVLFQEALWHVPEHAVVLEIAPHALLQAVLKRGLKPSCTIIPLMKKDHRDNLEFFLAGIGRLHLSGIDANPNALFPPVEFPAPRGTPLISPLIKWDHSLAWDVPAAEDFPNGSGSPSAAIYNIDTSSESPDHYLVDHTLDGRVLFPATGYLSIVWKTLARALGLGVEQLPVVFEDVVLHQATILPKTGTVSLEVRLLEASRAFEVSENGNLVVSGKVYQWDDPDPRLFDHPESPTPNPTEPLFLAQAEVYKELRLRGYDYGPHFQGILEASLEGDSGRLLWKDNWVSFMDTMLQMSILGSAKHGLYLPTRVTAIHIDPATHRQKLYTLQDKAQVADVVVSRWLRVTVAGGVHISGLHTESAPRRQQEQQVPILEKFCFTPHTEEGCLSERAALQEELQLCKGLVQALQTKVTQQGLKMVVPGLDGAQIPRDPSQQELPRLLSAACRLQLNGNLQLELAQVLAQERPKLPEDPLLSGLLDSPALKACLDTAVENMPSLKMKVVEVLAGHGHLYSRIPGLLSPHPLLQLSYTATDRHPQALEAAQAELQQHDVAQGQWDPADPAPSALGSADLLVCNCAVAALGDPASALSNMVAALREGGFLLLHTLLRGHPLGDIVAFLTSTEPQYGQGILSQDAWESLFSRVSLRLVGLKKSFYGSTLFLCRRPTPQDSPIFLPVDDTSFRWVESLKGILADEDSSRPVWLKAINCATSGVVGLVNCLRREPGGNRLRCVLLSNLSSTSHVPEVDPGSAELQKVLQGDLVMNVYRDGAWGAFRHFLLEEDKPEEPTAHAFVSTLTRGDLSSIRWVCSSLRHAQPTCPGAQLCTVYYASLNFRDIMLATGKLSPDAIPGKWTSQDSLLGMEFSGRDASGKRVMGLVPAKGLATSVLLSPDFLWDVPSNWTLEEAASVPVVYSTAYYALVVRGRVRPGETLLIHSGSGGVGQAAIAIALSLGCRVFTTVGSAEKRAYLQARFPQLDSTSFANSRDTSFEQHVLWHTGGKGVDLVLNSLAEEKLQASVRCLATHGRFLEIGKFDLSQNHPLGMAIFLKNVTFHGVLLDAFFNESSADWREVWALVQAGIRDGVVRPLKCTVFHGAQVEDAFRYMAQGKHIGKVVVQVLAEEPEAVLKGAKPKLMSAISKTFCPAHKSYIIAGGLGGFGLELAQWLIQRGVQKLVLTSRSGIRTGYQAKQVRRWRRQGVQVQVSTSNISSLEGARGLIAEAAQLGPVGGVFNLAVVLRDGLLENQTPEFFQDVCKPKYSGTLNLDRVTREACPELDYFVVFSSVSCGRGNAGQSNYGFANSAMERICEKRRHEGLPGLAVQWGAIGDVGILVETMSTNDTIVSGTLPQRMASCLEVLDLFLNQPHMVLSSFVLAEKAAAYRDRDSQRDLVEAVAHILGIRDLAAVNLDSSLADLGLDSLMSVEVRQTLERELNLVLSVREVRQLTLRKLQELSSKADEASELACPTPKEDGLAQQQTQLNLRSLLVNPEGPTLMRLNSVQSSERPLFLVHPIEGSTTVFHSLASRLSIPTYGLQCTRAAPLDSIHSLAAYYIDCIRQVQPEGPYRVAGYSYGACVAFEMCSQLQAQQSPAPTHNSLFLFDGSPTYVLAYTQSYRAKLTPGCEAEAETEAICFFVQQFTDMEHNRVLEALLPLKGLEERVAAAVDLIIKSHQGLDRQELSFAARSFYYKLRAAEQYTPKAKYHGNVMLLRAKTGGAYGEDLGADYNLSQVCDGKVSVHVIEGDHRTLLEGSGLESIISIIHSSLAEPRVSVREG

Assays:
[1] = molecular target: hFASN enzyme (full length) (Homo sapiens, UniProt P49327); test: Fatty Acid Synthase (FASN) Inhibition Scintillation Proximity Assay; assay type: biochemical; conditions: for Human FASN pIC50 (μM): mean where tested more than once, ~ = standard error of pIC50 larger than 0.5
[2] = molecular target: FASN Keto-reductase Domain (Homo sapiens, UniProt P49327); test: Fatty Acid Synthase Keto-Reductase Domain (FASN KR) Inhibition; assay type: biochemical; conditions: mean where tested more than once
A2780 ovarian cells [3] = test: A2780 Ovarian Cell Proliferation Assay in Lipid Reduced Medium, without Palmitate; conditions: 96 h, MTT
A2780 ovarian cells [4] = test: A2780 Ovarian Cell Proliferation Assay in Lipid Reduced Medium, with Palmitate (control); conditions: 25 μM palmitate, 96 h, MTT

Structure (SMILES) | FASN % Effect @1E−05M [1] [%] | Human FASN pIC50 (μM) [1] [μM] | FASN K-R Domain pIC50 (μM) [2] [μM] | Proliferation A2780 w/o Palmitate pIC50 (μM) (A2780 ovarian cells [3]) | Proliferation A2780 with Palmitate pIC50 (μM) (A2780 ovarian cells [4])
Cc1ccc(C(=O)N2CC(c3ccc(-c4cnn(C)c4)cc3)C2)cc1NC(=O)c1cccnc1Cl | 99 | 7.11 | 5.30 | 6.98 | <5
Cc1ccc(C(=O)N2CCC(c3ccc(-c4cnn(C)c4)cc3)CC2)cc1NC(=O)C1CCN(CCC(C)C)CC1 | 113 | 7.49 | 7.33 | 7.89 | 5.13
